The chains behind the UniProt entries cited, without tags or fusion partners. Where a name states a change or a piece, a line headed by the entry shows the natural chain unless it says otherwise.
UniProt P48067: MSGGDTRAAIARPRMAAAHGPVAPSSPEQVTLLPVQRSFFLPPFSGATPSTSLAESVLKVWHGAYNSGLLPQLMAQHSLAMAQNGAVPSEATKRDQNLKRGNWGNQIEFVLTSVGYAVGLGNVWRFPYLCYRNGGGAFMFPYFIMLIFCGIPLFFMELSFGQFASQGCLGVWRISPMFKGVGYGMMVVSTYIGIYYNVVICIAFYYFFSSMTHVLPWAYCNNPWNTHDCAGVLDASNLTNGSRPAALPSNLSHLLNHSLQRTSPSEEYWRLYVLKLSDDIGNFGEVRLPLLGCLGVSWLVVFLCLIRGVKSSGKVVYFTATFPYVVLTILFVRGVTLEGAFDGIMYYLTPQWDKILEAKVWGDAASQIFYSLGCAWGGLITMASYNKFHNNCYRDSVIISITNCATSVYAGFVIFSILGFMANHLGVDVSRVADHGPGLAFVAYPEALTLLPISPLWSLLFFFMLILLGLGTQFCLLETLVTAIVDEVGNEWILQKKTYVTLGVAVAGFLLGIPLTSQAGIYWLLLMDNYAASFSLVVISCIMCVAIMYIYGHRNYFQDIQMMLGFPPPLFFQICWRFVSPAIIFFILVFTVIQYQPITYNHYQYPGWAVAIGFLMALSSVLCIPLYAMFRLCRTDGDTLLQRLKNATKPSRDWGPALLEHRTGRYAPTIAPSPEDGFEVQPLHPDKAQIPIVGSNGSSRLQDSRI
UniProt Q9Y345: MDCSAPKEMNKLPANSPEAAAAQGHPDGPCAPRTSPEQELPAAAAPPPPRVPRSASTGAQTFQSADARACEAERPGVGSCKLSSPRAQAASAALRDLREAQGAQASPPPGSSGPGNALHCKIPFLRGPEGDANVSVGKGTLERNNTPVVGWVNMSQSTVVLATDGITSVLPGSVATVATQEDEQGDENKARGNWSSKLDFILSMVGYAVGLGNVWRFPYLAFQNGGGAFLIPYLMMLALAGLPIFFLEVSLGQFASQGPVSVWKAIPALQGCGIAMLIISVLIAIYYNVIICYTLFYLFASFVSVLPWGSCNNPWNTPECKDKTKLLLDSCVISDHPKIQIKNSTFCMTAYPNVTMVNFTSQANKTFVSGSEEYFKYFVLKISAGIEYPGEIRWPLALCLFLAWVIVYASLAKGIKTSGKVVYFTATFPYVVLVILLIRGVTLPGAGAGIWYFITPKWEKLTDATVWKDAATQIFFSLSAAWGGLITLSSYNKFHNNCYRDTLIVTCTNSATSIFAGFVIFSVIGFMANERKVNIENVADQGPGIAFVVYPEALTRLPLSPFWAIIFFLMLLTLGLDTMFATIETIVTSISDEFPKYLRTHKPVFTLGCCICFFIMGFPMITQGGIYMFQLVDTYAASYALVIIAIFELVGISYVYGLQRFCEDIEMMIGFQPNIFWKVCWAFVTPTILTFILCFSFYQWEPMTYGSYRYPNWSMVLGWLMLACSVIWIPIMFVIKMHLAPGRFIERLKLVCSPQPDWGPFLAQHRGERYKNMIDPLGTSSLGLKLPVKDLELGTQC

In patent US9045445B2, “Glycine transporter-1 inhibitors, methods of making them, and uses thereof” (Albany Molecular Research, Inc., priority 2010, dated 2015):

Legend:
[1] = target: glycine transporter-1 (GlyT-1) (Homo sapiens, UniProt P48067); experiment: [14C]glycine uptake assay in JAR cells endogenously expressing GlyT-1 (scintillation proximity); assay type: cell-based; conditions: read-out: GlyT-1 IC50, [14C]glycine 5 μM, 3 hour incubation
Protocol: The inhibitory activity of compounds of the invention against the glycine transporter-1 (GlyT-1) can be determined by the following scintillation proximity assay. The potency of each compound was assessed in inhibiting the uptake of radiolabeled glycine ([^14C]glycine) using the human choriocarcinoma cell line, JAR cells (ATCC#HTB-144), which endogenously express GlyT-1. In brief, 50,000 JARS cells were plated per well of tissue culture treated 96-well Cytostar-T plate (PerkinElmer) in RPMI media supplemented with 10% heat inactivated FBS and allowed to attach overnight at 37° C. and 5% CO2. Compounds were serially diluted 3-fold in DMSO generating a nine (9) data point response curve for each compound. Two replicates were performed per determination. The compounds were then diluted into Uptake Buffer (10 mM Hepes, 120 mM NaCl, 2 mM KCl, 1 mM CaCl2 and 1 mM MgCl2, 5 mM Alanine, pH 7.4) with a final DMSO concentration of 0.75% (v/v). […] Following a 3 hour incubation period at 37° C. and 5% CO2, the plates were sealed and placed at room temperature in the dark for 15 minutes prior to quantification of incorporated radioactivity using a MicroBeta Trilux scintillation plate reader (PerkinElmer). […]

[2] = target: glycine transporter-2 (GlyT-2) (Homo sapiens, UniProt Q9Y345); experiment: [14C]glycine uptake assay in HEK-GlyT-2 transfected cells; assay type: cell-based; conditions: read-out: GlyT-2 IC50, HEK-GlyT-2 cells

CCCS(=O)(=O)N1CCN(C2(CNC(=O)c3ccccc3F)CCCCC2)CC1
IC50 [1]: 0.157 µM
IC50 [2]: 50 µM

CCS(=O)(=O)N1CCN(C2(CNC(=O)c3c(N)cccc3Cl)CCCCC2)CC1
IC50 [1]: 0.073 µM
IC50 [2]: 41.3 µM
